Data on 3 compounds can be found in ChEMBL document CHEMBL4049398, “Microscale High-Throughput Experimentation as an Enabling Technology in Drug Discovery: Application in the Discovery of (Piperidinyl)pyridinyl-1H-benzimidazole Diacylglycerol Acyltransferase 1 Inhibitors” (J Med Chem, 2017).

Amino acid sequences for entries named in this document (tags omitted). A change or cut given only in a name is not applied to a line headed by its entry.
UniProt Q12809: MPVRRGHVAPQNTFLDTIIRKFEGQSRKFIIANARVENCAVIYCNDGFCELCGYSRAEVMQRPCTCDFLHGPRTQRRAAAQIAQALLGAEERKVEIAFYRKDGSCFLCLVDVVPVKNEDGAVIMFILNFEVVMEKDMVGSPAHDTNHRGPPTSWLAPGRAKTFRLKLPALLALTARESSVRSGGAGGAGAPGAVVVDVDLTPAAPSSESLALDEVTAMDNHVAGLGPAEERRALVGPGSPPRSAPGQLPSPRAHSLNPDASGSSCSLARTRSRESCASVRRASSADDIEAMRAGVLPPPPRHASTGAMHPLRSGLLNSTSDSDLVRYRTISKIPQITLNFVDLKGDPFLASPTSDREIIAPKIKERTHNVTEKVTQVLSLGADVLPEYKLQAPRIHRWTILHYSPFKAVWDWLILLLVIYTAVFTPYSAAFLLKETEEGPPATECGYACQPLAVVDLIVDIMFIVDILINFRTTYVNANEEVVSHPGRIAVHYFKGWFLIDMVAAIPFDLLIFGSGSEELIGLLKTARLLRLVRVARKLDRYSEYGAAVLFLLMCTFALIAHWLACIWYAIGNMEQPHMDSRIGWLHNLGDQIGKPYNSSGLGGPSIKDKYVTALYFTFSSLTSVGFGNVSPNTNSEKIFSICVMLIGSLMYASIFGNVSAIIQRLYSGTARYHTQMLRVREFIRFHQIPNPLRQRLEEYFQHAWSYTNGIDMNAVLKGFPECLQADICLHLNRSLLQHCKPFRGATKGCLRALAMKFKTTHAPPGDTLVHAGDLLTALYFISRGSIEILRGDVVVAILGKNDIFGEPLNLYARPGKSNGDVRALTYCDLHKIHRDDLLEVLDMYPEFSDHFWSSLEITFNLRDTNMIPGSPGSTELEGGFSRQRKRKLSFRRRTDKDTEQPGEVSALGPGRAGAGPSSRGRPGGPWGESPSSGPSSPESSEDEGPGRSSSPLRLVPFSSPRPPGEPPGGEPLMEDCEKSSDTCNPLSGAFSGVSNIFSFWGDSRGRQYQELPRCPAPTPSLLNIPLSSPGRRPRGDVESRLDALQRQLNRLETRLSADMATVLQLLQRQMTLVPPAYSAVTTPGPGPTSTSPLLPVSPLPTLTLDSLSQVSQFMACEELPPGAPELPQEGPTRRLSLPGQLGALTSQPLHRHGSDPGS

In this assay the target is Voltage-gated inwardly rectifying potassium channel KCNH2 (Homo sapiens, UniProt Q12809). The assay is described as follows: Inhibition of MK499 binding to human ERG.

For orientation: IC50 means the concentration that gives 50% inhibition. The low end stands for greater potency, the high end for weaker potency. Take `O=C(O)C[C@@H]1COC2(CCN(c3ccc(-c4nc5cc(C(F)(F)F)ccc5[nH]4)cn3)CC2)C1`: the IC50 was 4.4 µM. This lies in the single-digit micromolar range.

Regarding `O=C(O)C[C@H]1COC2(CCN(c3ccc(-c4nc5cc(C(F)(F)F)ccc5[nH]4)cn3)CC2)C1`, the IC50 amounted to 4.9 µM. With `O=C(O)CC1COC2(CCN(c3ccc(-c4nc5cc(C(F)(F)F)ccc5[nH]4)cn3)CC2)C1` (racemic) the figure was 19.5 µM.
